# Laboratory results taken from patent US20020026051A1, “Dithiepino [6,5-b]pyridines, and related compositions and methods” (priority 1999, published 2002).
# Amino acid sequences for entries named in this document (tags omitted). Residues count along the entry.
# UniProt P15381, whole entry: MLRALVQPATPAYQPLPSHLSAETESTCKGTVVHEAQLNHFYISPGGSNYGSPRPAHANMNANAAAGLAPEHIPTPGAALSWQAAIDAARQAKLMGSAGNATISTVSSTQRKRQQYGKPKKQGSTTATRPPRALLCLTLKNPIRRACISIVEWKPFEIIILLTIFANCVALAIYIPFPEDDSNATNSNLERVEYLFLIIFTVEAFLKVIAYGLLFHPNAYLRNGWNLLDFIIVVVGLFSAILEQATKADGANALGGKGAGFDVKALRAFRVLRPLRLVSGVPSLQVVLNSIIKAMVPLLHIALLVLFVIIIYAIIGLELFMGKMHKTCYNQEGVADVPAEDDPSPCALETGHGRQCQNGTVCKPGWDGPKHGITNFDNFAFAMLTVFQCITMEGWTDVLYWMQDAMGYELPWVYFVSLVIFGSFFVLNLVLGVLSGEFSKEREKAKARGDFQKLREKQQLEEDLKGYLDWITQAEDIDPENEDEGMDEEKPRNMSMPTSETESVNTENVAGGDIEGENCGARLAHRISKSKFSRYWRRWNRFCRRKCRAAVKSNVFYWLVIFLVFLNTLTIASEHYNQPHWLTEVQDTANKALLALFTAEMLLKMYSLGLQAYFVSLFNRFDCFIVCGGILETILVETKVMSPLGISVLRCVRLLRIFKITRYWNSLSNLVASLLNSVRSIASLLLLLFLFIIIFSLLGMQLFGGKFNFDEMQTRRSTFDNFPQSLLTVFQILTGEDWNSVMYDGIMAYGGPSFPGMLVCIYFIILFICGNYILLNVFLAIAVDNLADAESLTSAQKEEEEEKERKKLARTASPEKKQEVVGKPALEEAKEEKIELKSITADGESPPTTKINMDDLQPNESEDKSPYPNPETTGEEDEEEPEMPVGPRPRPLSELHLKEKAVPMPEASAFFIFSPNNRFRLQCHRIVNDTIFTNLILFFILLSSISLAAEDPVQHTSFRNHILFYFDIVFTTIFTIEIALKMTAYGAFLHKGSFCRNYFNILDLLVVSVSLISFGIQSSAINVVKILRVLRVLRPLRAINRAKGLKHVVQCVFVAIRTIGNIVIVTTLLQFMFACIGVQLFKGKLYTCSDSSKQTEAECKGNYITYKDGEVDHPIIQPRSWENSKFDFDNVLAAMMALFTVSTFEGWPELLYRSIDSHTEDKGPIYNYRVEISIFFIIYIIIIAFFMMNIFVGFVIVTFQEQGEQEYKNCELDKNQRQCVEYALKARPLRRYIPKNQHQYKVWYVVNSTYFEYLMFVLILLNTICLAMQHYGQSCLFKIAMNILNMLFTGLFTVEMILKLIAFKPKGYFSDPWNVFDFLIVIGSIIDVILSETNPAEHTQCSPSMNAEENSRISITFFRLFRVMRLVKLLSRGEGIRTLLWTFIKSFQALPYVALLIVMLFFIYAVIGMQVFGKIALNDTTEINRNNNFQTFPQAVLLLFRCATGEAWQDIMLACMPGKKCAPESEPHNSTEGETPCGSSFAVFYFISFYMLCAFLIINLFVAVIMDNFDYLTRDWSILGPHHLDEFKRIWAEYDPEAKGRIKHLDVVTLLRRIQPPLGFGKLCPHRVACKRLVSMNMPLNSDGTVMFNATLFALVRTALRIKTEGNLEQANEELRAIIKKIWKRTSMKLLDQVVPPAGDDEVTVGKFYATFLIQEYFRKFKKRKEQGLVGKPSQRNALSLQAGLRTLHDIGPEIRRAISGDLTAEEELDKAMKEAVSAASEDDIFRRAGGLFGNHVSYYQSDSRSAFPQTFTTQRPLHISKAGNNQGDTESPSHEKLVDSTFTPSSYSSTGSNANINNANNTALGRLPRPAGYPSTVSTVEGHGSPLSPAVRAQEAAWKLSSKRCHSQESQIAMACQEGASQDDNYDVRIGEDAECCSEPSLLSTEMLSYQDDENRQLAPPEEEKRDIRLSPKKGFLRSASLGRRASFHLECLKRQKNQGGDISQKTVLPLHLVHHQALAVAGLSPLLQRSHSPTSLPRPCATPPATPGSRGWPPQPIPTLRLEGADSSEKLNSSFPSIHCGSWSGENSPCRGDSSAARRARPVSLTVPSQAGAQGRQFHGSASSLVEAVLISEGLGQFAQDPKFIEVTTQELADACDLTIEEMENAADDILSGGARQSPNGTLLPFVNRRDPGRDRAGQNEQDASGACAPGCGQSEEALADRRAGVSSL
# UniProt P13806, 27-960 partner limits assumed: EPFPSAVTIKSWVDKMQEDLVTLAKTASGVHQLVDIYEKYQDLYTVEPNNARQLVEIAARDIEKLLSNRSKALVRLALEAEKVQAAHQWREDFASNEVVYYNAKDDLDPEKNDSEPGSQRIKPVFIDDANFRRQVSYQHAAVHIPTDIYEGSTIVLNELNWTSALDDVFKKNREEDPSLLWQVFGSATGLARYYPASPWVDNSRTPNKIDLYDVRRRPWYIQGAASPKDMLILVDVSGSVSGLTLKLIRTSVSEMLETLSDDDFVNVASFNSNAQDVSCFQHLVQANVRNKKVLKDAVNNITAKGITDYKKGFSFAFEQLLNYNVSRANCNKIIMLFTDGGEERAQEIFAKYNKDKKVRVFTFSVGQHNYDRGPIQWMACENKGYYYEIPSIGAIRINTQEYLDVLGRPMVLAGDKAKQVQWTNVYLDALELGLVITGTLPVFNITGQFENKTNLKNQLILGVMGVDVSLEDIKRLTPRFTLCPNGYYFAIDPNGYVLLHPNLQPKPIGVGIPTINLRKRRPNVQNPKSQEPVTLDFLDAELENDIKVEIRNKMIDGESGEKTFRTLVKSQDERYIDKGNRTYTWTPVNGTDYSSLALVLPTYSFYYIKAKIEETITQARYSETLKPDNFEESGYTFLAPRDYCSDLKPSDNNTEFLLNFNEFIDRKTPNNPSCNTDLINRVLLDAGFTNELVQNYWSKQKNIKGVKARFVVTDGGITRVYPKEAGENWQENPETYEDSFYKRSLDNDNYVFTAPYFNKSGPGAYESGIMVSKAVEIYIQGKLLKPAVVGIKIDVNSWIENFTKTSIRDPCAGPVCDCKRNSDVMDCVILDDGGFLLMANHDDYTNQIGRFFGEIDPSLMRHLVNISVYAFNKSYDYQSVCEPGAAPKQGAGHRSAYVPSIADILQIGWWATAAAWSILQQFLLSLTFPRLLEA
# UniProt P13806, 961-1106 partner limits assumed: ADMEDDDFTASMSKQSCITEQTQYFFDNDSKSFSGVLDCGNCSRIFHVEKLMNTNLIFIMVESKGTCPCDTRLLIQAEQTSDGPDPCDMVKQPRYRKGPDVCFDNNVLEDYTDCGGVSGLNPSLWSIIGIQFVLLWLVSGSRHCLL
# pIC50: −log10 of the molar value.
# Target: calcium channel (Oryctolagus cuniculus, UniProt P15381)
# Test: Assay for Inhibition of Nitrendipine Binding (3H-nitrendipine, heart membranes)
# Conditions: read-out: Nitrendipine Binding Assay IC50; 3H-nitrendipine displacement, rabbit heart membranes; Tables 6-7
row,pIC50,Structure (SMILES)
1,7.32,COC(=O)c1ccc(COC(=O)C2=C(C)NC3=C(C2c2c(F)cccc2Cl)S(=O)(=O)CCS(=O)(=O)C3)cc1 (stereo not shown)
2,7.10,CC1=C(C(=O)OCCOC(=O)Cc2ccc(N(C)C)cc2)C(c2c(F)cccc2Cl)C2=C(CS(=O)(=O)CCS2(=O)=O)N1 (stereo not shown)
3,7.31,CC1=C(C(=O)OCCOC(=O)c2ccc(C#N)cc2)C(c2c(F)cccc2Cl)C2=C(CS(=O)(=O)CCCS2(=O)=O)N1 (stereo not shown)
4,6.93,CC1=C(C(=O)OCCOC(=O)c2ccc(N(C)C)cc2)C(c2c(F)cccc2Cl)C2=C(CS(=O)(=O)CCS2(=O)=O)N1 (stereo not shown)
